Measured values as given in patent EP2179732A1, “PHARMACEUTICAL COMPOSITION COMBINING AN ENZYME HMG-COA REDUCTASE INHIBITING AGENT AND A GASTROINTESTINAL LIPASE ENZYME INHIBITING AGENT” (Espinosa Abdala, Leopoldo de Jesús, priority 2007, dated 2008).

Test system: obese patients with hypercholesterolemia and hypertriglyceridemia
Experiment: Clinical comparative study: body weight (body mass index, waist circumference reduction, weight loss)

With `CC(C)c1c(C(=O)Nc2ccccc2)c(-c2ccccc2)c(-c2ccc(F)cc2)n1CC[C@@H](O)C[C@@H](O)CC(=O)O` [Atorvastatin] the “IMC (Body Mass Index)” value (1 year) was 29.3 (1.4) Kg./M^2 and the “IMC (Body Mass Index)” value (6 Months) was 31.3 (1.3) Kg./M^2.
